# Patent US20210355166A1, “ANALGESICS AND METHODS OF USE THEREOF” (priority 2018, published 2021)
# Amino acid sequences for entries named in this document (tags omitted).
# UniProt P42866, whole entry: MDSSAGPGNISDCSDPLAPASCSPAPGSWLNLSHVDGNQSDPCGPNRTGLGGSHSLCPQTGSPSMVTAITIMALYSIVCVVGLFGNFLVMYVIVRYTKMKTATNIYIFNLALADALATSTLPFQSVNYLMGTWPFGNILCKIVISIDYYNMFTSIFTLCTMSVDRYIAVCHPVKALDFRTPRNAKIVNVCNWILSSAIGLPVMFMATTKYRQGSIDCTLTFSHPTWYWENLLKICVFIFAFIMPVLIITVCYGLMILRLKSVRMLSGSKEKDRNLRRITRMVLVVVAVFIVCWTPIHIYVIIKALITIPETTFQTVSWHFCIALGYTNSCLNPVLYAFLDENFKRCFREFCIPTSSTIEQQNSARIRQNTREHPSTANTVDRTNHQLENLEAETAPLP
# Key:
# C57BL/6 mice = assay: Nociception (analgesia) testing on 54 C hotplate; assay type: in vivo; details: Mus musculus, sc, read-out: ED50, hotplate, systemic administration s.c.
# Procedure: Experiments were performed under the guidelines of the Australian code of practice for the care and use of animals for scientific purposes (National Health and Medical Research Council, Australia, 7th Edition). Great care was taken to minimise animal suffering during these experiments and to reduce the number of animals used. […] Food and water was available ad libitum. Mice were given at least 7 days to habituate to housing facilities prior to handling, and handled by the experimenter for 4 days prior to testing. […] The experimenter was blind to all drugs tested. Animals were tested on a 54° C. hotplate, with a maximum cut-off time of 20 seconds to prevent tissue damage. Endpoints were hindpaw lick, hindpaw flutter or jump. […] The percentage of maximal possible effects (% MPE) were calculated as follows: % MPE=(test latency−baseline latency)/(cutoff latency−baseline latency)×100%. The cut-off latency was 20 seconds. Significant differences were assessed with a two-way ANOVA and Tukey's post hoc multiple comparisons test. […] Doses were transformed to the logarithm of μmol/kg. A two-way ANOVA was used to compare data at equimolar doses.
# mouse MOPr (mMOPr) = biological target: T1, mouse MOPr (mMOPr) (Mus musculus, UniProt P42866); assay type: cell-based
# T1 construct: expressed in transfected cells
# MOPr = MOPr (Mus musculus, UniProt P42866); assay: MOPr internalisation (endocytosis assay) in AtT20 cells; assay type: cell-based; set-up: expressed in transfected cells
# Procedure: Imaging parameters including laser intensity, photomultiplier tube (PMT) voltage and offset remained constant for each experiment. Mean fluorescence intensity was measured using ImageJ software to calculate mean gray value of an area defined […] a single cell. Each experiment was normalized to the mean of untreated cells as 0% and the mean of cells treated with saturating concentrations of Met-enk (30 μM) as 100%.
# MOPr internalisation was assessed immunocytochemically after 30 minutes of agonist treatment (FIGS. 8, 9). […] Endocytosis assay: Receptor internalization was quantified using a ratiometric staining of membrane and internalized receptors. […] Cells were then incubated for an additional 30 min with indicated agonist at 37° C. To unbind the M1 anti-FLAG antibody from the surface receptors, cells were quickly washed three times with ice-cold PBS lacking Mg^2+ and Ca^2+ and supplemented with 0.04% EDTA (pH 7.4).
molecule,measurement,setting,value
"CN1CC[C@]23c4c5ccc(O)c4O[C@H]2[C@@H](O)C=C[C@H]3[C@H]1C5 [morphine, reference compound]",ED50,C57BL/6 mice,27 µmol/kg
COc1ccsc1CNCC[C@@]1(c2ccccn2)CCOC2(CCCC2)C1 [oliceridine],GIRK (80% knockdown) log(EC50),mouse MOPr (mMOPr); AtT20 mMOPr cells after β-CNA,−7.6 ± 0.06
same,GIRK (80% knockdown) KA,mouse MOPr (mMOPr); operational model fit,−7.3 ± 0.09
met-enkephalin,Internalisation log(tau/KA),MOPr,6.1 ± 0.03
